# Target: T1, BMP-2 (Homo sapiens, UniProt P12643)
# T1 construct: purchased Medtronic
# T1 sequence (P12643 283-396): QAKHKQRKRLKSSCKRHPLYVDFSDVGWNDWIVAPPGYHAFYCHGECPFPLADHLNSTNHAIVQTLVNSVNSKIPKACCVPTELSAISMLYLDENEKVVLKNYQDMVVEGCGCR
# Assay: Solution-phase BMP-2 binding assay of biotinylated peptides (streptavidin capture, anti-BMP antibody)
# Conditions: 37° C., read-out: Estimated Affinity for BMP-2
# Protocol: To confirm these BMP binding results, the peptides were also tested in an alternate assay format in which the peptide and BMP2 were allowed to bind in solution and then assayed. Briefly, the peptides were synthesized with a biotin group attached to the ε amino group of a lysine residue at the C-terminus of the peptide. The biotinylated peptides (0-12 pmoles) were mixed with BMP-2 (0-25 pmoles) in solution and allowed to incubate at 37° C. for 30 minutes in a polypropylene plate. The solutions were transferred to a streptavidin-coated plate and incubated for 1 hour at 37° C. to capture the biotinylated peptides. Plates were washed in TBS-Tween™ 20 and then incubated with an anti-BMP antibody (1:1000 dilution; R&D systems) for 1 hour at RT. After washing, an alkaline phosphatase-labeled secondary antibody was then added to the plate and incubated at RT for 30 minutes. The plates were washed with TBS-Tween™ 20 and the antibody binding was detected using the chromogenic AP substrate pNPP.
row,Sequence,Kd [nM]
1,SRGGEAAAGAWVSFSALESSR [compound 2007],79
2,SSDWGVVASAWDAFEALDASR [compound 2011],55
3,SSFEPLRFPLKGVPVSR [compound 2009],10
4,SSSVDLYFPLKGDVVSR [compound 2012],9

# Source: patent publication US8030452B2, “IFBM'S to promote the specific attachment of target analytes to the surface of orthopedic implants” (priority 2004, dated 2011)
